## Measured affinities in a library of Ab-95 light chain variants

Data: MIT Lincoln Laboratory AlphaSeq set, Engelhart et al. 2022, doi:10.1038/s41597-022-01779-4, as distributed in FLAb.

Binding partner: SARS-CoV-2 spike HR2 peptide, sequence PDVDLGDISGINAS.

Parent: Ab-95, a human scFv built as VH, a 15-residue (Gly4Ser)3 linker, VL. Only the CDRs of the light chain vary.
VH: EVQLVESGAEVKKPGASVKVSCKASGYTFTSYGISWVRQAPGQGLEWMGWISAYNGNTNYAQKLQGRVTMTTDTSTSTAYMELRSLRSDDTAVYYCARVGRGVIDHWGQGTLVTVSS
VL: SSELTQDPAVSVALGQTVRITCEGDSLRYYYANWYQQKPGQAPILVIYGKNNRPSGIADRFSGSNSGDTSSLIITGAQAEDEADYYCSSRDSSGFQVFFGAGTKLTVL

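The parent was found by panning a naive human phage display library on the peptide. In library AAYL52, one, two or three CDR residues were substituted; doubles and triples were drawn at random. Affinity was read by AlphaSeq, a pooled yeast mating assay with surface-displayed partners. After mating in shaken culture at 30 °C for 16 h, diploids were selected and their barcode pairs sequenced. The ratio of observed to expected reads was calibrated, replicate by replicate, on BCL2-family standards whose Kd was known from biolayer interferometry. Each pool was mated in three replicate cultures.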

The parent's light chain CDRs are EGDSLRYYYAN, GKNNRPS, SSRDSSGFQVF; each variant's own CDRs replace them letter for letter. Kd is apparent (estimated from mating counts) and averaged on the log scale over replicates with a signal. Smaller is tighter. "not detected" marks a missing value. The strain was present, yet no cells mated with the target were sequenced in any replicate, which points to weak or no binding. Parent in this assay: reference entry 200 nM, copy in this library 180 nM. Background: pairings of library AAYL52 with three empty control strains gave a value in 28% of cases (median 8.2 µM, 5th percentile 800 nM). Values in that range, when seen in few replicates, are hard to tell from nonspecific mating.

CDR-L1 | CDR-L2 | CDR-L3 | Kd (apparent) | detected
EHDSLRYYYDN | GKMNRPS | SSRDSSGFQVF | 4.2 µM | 1/3
EGDSLRYYYAN | GKNNRCS | SSRDSSAFQVE | 2.9 µM | 1/3
EGDSLRYYYAN | GSNNRPS | SDRDSSFFQVF | 7.9 µM | 3/3
EGDSLRYYYAN | GKWNRPS | SSRQSSGVQVF | 1.1 µM | 1/3
EGDSLRYYYAE | GKNNRPC | SNRDSSGFQVF | 6.6 µM | 1/3
YGDSLRYYYAQ | GKNNRPS | SSRDSSGFNVF | 5.9 µM | 2/3
NGDSLRYYMAY | GKNNRPS | SSRDSSGFQVF | 57 µM | 3/3
YGDCLRYYYAN | GKNNRPS | SSRDSSKFQVF | not detected | 0/3
EGDSLRYYYAN | MKNHRPY | SSRDSSGFQVF | 11 µM | 1/3
GGDSLRYYYAN | GKCNRPS | SSRCSSGFQVF | 18 µM | 1/3
EGDSLEYYYAN | GKNNRPS | SSTDSSGPQVF | not detected | 0/3
EGDSLRIYYAN | GHNNRPS | SSRDLSGFQVF | not detected | 0/3
YGDCLRYYYGN | GKNNRPS | SSRDSSGFQVF | not detected | 0/3
EGDSLRYYYAN | GKNNRPS | SVRDSSNPQVF | 170 nM | 3/3
EGDSLRYYRAN | GKNNRPS | SSRYSSGFVVF | 200 nM | 3/3
EGDSIRYYYIN | GKNNRPS | SSNDSSGFQVF | not detected | 0/3
EHLSLRYYYAN | GKNNRPS | SSHDSSGFQVF | 1.2 µM | 3/3
EGDSLRYYLAN | GKNNRPS | KSRYSSGFQVF | 4.4 µM | 1/3
EGDSLRYYYAN | GKNNMPY | CSRDSSGFQVF | 120 µM | 1/3
EGWSLRYYYAN | GKNNRPS | SVRDSSGFSVF | 640 nM | 3/3
EGDSLRYYYAN | GKNNAPS | SSGDSSGFQLF | not detected | 0/3
EGTALRYYYAN | GKNKRPS | SSRDSSGFQVF | 790 nM | 3/3
EGDSLRYYYAM | GKNNRPS | SSRDDVGFQVF | 28 µM | 2/3
EGDYWRYYYAN | GKYNRPS | SSRDSSGFQVF | 14 µM | 1/3
EGYSLRHYYAN | GKNNRPS | FSRDSSGFQVF | 14 µM | 2/3
EGDSLRYIYAN | GKNNRPS | SSMDSSAFQVF | not detected | 0/3
EGDSTRYYYAN | YKNNRPS | SSRDSFGFQVF | not detected | 0/3
EGDILRYYYAK | GKNNRPS | SSRDSSGFQVF | 98 nM | 3/3
EGDSLRYGYAY | GKNNRPS | SSRDSSGFQVG | 430 nM | 3/3
WGDSLRYYYKN | GKNNRPS | SSRDSSGDQVF | 70 µM | 2/3
AGVSLRYYYAN | GKNNRFS | SSRDSSGFQVF | 3.3 µM | 3/3
EGDGLCYYYAN | GKNCRPS | SSRDSSGFQVF | not detected | 0/3
EGDMLRYYYAN | GKNNRAS | SSRDSSGCQVF | 250 nM | 3/3
EGDSLRYYYAN | GKNCRPS | SSRPSSCFQVF | 5.3 µM | 2/3
EGDSLAYYYAN | GKINQPS | SSRDSSGFQVF | not detected | 0/3
EGDSLRYYYAN | GKNNRGS | ESRDSSGFQVF | 290 nM | 3/3
EGDSLRYYIAN | GKNVRPS | SSRDSSPFQVF | 580 µM | 1/3
WGRSLRYYYAN | GKNNRPS | SWRDSSGFQVF | 2.3 µM | 3/3
EGLSKRYYYAN | GKNNRPS | SSRRSSGFQVF | 4.3 µM | 1/3
EGDSLRRYYAN | GKNLRPS | SSRGSSGFQVF | 490 nM | 3/3
RGDLLRYYYAN | GKNNRPS | SSRTSSGFQVF | not detected | 0/3
EGGSLRYYYAN | GKNNRMS | SSRDSSGFQVI | 320 nM | 2/3
EGDSLRYYYAN | YKNNRPV | SSRDSSGMQVF | 13 µM | 1/3
EQDSLRYYSAN | GKNNRPS | SSRDSSGFQVF | 680 nM | 3/3
AGDHMRYYYAN | GKNNRPS | SSRDSSGFQVF | 1.9 µM | 2/3
EGDFLRYYYAA | GKNNRPS | SSRDSSGFQVF | 9.2 µM | 3/3
EGDSLRFYYAN | GKNNRPE | SSRWSSGFQVF | 240 nM | 3/3
EGDSSRNYYAN | GHNNRPS | SSRDSSGFQVF | 1.5 µM | 3/3
EGDSLRYYGAN | GANNRPS | SSRDSSYFQVF | 62 nM | 3/3
EGDLLRYYYAL | GKNNRFS | SSRDSSGFQVF | not detected | 0/3
CHDSLRYYYAN | GKNNRPS | SSRDSSGFQVA | 660 nM | 3/3
EGDSVRYYYAN | GKHNRPS | SDRDSSGFQVF | not detected | 0/3
EGDSLRYYYAN | GKNNRES | SSRCSSGIQVF | 2.5 µM | 3/3
EGDSIRYYVAN | GKNNRPS | QSRDSSGFQVF | not detected | 0/3
EGDSLRYRYAN | GKNYRPS | SSRDSSGTQVF | 200 nM | 3/3
EGDSLRYYYAN | ATNNRPS | SSRDSSGFQVG | 5.7 µM | 1/3
EGDSLRYYYAN | GKTNRFS | KSRDSSGFQVF | not detected | 0/3
EGDGFRYYYAN | GKNNRPS | SSRDSSGFQVT | 19 µM | 3/3
EGDDLRVYYAN | GKNNRPS | CSRDSSGFQVF | 7.1 µM | 3/3
EGDELRMYYAN | GKNNRPS | SSRDSSGFQCF | 3.2 µM | 1/3
EGDSLRYYYAN | GKNNRGS | SSRDSSLFQYF | not detected | 0/3
EGDSLREYYAN | GSNNRPS | SSRDSSGFQVF | 250 nM | 3/3

7 of these entries, quoted again:

CDR-L1 | CDR-L2 | CDR-L3 | Kd (apparent) | detected
GGDSLRYYYAN | GKCNRPS | SSRCSSGFQVF | 18 µM | 1/3
EHLSLRYYYAN | GKNNRPS | SSHDSSGFQVF | 1.2 µM | 3/3
EGDSLRYIYAN | GKNNRPS | SSMDSSAFQVF | not detected | 0/3
EGYSLRHYYAN | GKNNRPS | FSRDSSGFQVF | 14 µM | 2/3
EGDSLRRYYAN | GKNLRPS | SSRGSSGFQVF | 490 nM | 3/3
EGDSLRYRYAN | GKNYRPS | SSRDSSGTQVF | 200 nM | 3/3
YGDSLRYYYAQ | GKNNRPS | SSRDSSGFNVF | 5.9 µM | 2/3